Cneo AK release: causes C. neoformans cell lysis; 360,000 tested, 0.2% active; lysis activity, % at 15 µM; adenylate kinase release luminescence, 4 h; normalised: neutral wells 0, clomiphene wells 100; AID 651654;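 active means mean lysis activity across replicates of at least 80%, whatever share of replicates individually reach that level; inactive means mean lysis activity below 80%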
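Assay system: C. neoformans cells. Amount: yeast cell density of 5 × 10^6 cells/mL. Technique: AK luminescence. Buffer or medium: YPD. Times: static 4 h at 37 °C with compound, 1 h detection. Dosing: single-point compound dose. Read-out: lysis from increased AK signal.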
E-sel inducer: E-selectin induction on HUVECs; P16581; HUVEC E-selectin immunofluorescence imaging; normalized: neutral wells 0, TNF-alpha wells 100; activation, % at 7.58 µM; 260,000 tested, 0.37% active; AID 686992;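 active means mean E-selectin-positive cell signal at least 10% of the positive control, reached in at least 60% of replicates, without over 20% cell loss; inconclusive means no rule given, readout overlaps actives, possibly toxicity-flagged; inactive means the rest, including those meeting only one limit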
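Read-out basis: % PE-positive cells; Test system: HUVEC primary endothelial cells; Technique: immunofluorescence imaging; Dosing: single-point compound dose.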
UUG fidelity: modulators of yeast start codon fidelity, primary screen, whole organism, S. cerevisiae, single point, plate reader | AID 602363, 2012 | S. cerevisiae UUG-firefly luciferase reporter, luminescence/redox ratio | activity score, % at 18.7 µM | hit rate 0.13% among 350,000;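 active = replicate mean at a twofold rise or more, about +100% in these data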;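 also: firefly luciferase made from a UUG start codon reports start codon fidelity; reporter light over untreated wells divided by growth signal over untreated wells; some hits fall short of that in this replicate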
DENV2 CPE rescue: DENV2-induced cell death inhibition. AID 651640. 350,000 tested, 1.7% active. DENV2-infected cells, cytopathic effect rescue, plate reader. CPE inhibition, % at 9.99 µM; in the data active means CPE inhibition above about 20%, passing the limit was not always enough; inconclusive means no clear call, values can overlap the other calls; tested in BHK-21 cells
Numbers stand for hits; i = inactive; ? = inconclusive; nt = not tested or not shown. A selection: hits, their analogues and other compounds. The true share with any hit is near 1.8%.

SMILES	Cneo AK release	E-sel inducer	UUG fidelity	DENV2 CPE rescue
CCCN1C[C@@H](C)[C@H](OC)CN(C)C(=O)c2ccc(NC(=O)c3cccc(F)c3)cc2OC[C@H]1C	i	i	i	i
COc1ccc(CN(C)C[C@@H]2OCCCC[C@H](C)Oc3ccc(NC(=O)NC4CCCCC4)cc3C(=O)N([C@@H](C)CO)C[C@@H]2C)cc1	i	i	i	i
C=CCC1NS(=O)(=O)OC(COC)C1C (stereo not given)	i	nt	i	46
CC(C)C#Cc1ccc2c(c1)O[C@@H](CN(C)C(=O)c1ccncc1)[C@@H](C)CN([C@@H](C)CO)S2(=O)=O	i	i	nt	i
O=C(NCCO)c1ccc2c3n(nc2c1)-c1ccc(Cl)cc1CO3	i	i	i	nt
COCCNC(=O)c1ccc2c3n(nc2c1)-c1ccc(Cl)cc1CO3	i	i	i	122
CO[C@@H]1CN(C)C(=O)c2cc(NC(=O)C3CC3)ccc2OC[C@H](C)N(C(=O)C2CCOCC2)C[C@@H]1C	i	i	nt	i
Cc1ccc(N2C(=O)c3ccccc3C2(O)c2ccccc2)cc1 (stereo not given)	i	nt	i	i
CCc1nnc(N2C(=O)c3ccccc3C2(O)c2ccccc2)s1 (stereo not given)	i	nt	i	41
COC(=O)[C@@H]1[C@@H](CO)[C@@H]2Cn3c(ccc(C4=CCCCC4)c3=O)[C@@H]2N1Cc1cccnc1	nt	i	nt	i
C/C(C=O)=C/c1ccccc1	i	nt	i	91
CC(/C=C\c1ccccc1)=C/C(=O)O	nt	i	nt	i
CC(=O)Nc1ccc2c(c1)C(=O)N(C)[C@H]1CC[C@H](CC(=O)NCc3ccc4c(c3)OCO4)O[C@H]1CO2	i	i	i	i
COc1ccc(CC(N)c2csc(NC(=O)c3ccc(F)cc3)n2)cc1 (stereo not given)	i	i	i	i
COc1ccc(CC(N)c2csc(NC(=O)c3ccc(OC)cc3)n2)cc1 (stereo not given)	i	i	i	37
CSc1cccc(NC(=O)CC2Oc3ccccc3NC2=O)c1 (stereo not given)	i	nt	i	37
COc1cccc(NC(=O)CC2Oc3ccccc3NC2=O)c1 (stereo not given)	i	i	i	i
CC(=O)CSc1ccc(-c2nc3ccccc3[nH]2)cn1	i	nt	i	i
CC(=O)CSc1ccc(-c2nc3cc(C)c(C)cc3[nH]2)cn1	nt	i	nt	27
COc1ccccc1-c1cn(CC[C@H]2CC[C@H](NC(=O)NC(C)C)[C@H](CO)O2)nn1	i	i	i	i
COc1ccccc1-c1cn(CC[C@H]2CC[C@@H](NC(=O)NC(C)C)[C@H](CO)O2)nn1	i	i	i	28
COc1ccccc1NC(=O)N[C@H]1CC[C@@H](CCn2cc(-c3ccccc3OC)nn2)O[C@H]1CO	i	i	i	i
COc1ccccc1NC(=O)N[C@H]1CC[C@@H](CCn2cc(-c3ccccc3OC)nn2)O[C@@H]1CO	99	i	i	i
C[C@H](CO)N1C[C@H](C)[C@@H](CN(C)C(=O)NC2CCCCC2)Oc2ccc(NC(=O)CCC(F)(F)F)cc2CC1=O	i	i	i	32
C[C@@H]1CN([C@H](C)CO)C(=O)Cc2cc(NC(=O)CCC(F)(F)F)ccc2O[C@@H]1CN(C)CC1CC1	i	i	i	i
SMILES	Cneo AK release	E-sel inducer	UUG fidelity	DENV2 CPE rescue
C[C@H](CO)N1C[C@H](C)[C@H](CN(C)CC2CC2)Oc2ccc(NC(=O)CCC(F)(F)F)cc2CC1=O	i	i	i	21
C[C@@H]1CN([C@H](C)CO)C(=O)Cc2cc(NC(=O)CCC(F)(F)F)ccc2O[C@@H]1CN(C)S(C)(=O)=O	nt	39	nt	nt
O=C([C@H]1[C@H](CO)[C@H]2Cn3c(cccc3=O)[C@@H]1N2C(=O)CC1CC1)N1CCCCC1	i	i	nt	i
O=C(C[C@H]1CC[C@@H]2[C@H](COC[C@H](O)CN2Cc2cccc(C(F)(F)F)c2)O1)NCCc1ccncc1	i	i	nt	i
CCCC#Cc1cnc2c(c1)C(=O)N([C@@H](C)CO)C[C@H](C)[C@@H](CN(C)C(=O)Cc1cccnc1)O2	i	i	i	i
C[C@@H]1CN([C@H](C)CO)C(=O)c2cc(NC(=O)Nc3ccc(C(F)(F)F)cc3)ccc2O[C@H]1CN(C)C(=O)NC1CCCCC1	i	i	i	126
C[C@H](CO)N1C[C@H](C)[C@@H](CN(C)C(=O)NC2CCCCC2)OCCCC[C@H](C)Oc2ccc(NC(=O)Nc3ccc(C(F)(F)F)cc3)cc2C1=O	i	i	i	?
C[C@@H]1CN([C@@H](C)CO)C(=O)c2cc(NC(=O)c3ccncc3)ccc2O[C@H]1CN(C)C(=O)NC1CCCCC1	i	nt	i	35

Source: PubChem
